Consider one substance from publication PMC2900185 (Biochemistry, 2010).

In the assay the test system is S. cerevisiae strain A3365 expressing C-terminally truncated Ste2p. In words: Growth arrest halo assay. The class given is cell-based, Saccharomyces cerevisiae.

As to [Lys^7,Phe^13(2,3,4,5,6-F5)]α-factor, the “lowest concentration at which a halo formed” value (did not form a halo until this concentration) was 12.5 µM. Under “from the concentrations giving an 18 mm halo”, the “fold less active than α-factor in halo assay” value is on record as “about 130 fold”.
